From patent publication US20070078263A1, “BIARYL SUBSTITUTED HETEROCYCLE INHIBITORS OF LTA4H FOR TREATING INFLAMMATION” (deCODE Chemistry, Inc., priority 2005, published 2007) come the findings set out here.

In one assay the target is T1, human LTA4 hydrolase (Homo sapiens, UniProt P09960).
T1 construct: A human LTA4 hydrolase full-length cDNA clone (NM 000895) was purchased; His tag (6xHis of vector pDEST17); made in house; host or cells: Escherichia coli BL21-AI
T1 sequence (P09960 1-611): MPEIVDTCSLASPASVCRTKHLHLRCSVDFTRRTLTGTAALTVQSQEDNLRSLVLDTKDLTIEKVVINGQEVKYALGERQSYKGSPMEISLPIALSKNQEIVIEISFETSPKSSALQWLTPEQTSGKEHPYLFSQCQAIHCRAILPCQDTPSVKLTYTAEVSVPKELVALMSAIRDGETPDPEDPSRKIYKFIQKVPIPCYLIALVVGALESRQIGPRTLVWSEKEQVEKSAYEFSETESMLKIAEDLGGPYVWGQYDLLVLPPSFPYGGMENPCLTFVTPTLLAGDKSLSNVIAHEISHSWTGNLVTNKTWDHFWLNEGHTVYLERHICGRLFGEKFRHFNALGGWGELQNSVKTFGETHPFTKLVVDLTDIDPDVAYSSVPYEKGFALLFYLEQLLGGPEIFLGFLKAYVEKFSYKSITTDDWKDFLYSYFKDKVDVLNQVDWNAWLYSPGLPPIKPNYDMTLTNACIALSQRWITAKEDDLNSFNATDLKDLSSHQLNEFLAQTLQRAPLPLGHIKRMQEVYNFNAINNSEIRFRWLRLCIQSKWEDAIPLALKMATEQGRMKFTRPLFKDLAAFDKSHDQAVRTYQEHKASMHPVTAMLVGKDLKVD
Kind of assay: In vitro assay testing inhibitory activity against purified recombinant human LTA4 hydrolase (LTB4 formed, LC-MS/MS).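 Also: 200 nM enzyme preincubated 10 min at room temperature with serial inhibitor dilutions in pH 8.0 Tris buffer with BSA and 10% DMSO, then 2 µM LTA4 added.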 The class given is biochemical.

Another assay concerns human whole blood. Kind of assay: Ex vivo assay testing inhibitory activity in human whole blood after stimulation with calcium ionophore (LTB4 ELISA).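 Also: heparinized human blood preincubated 15 min at 37 °C with compound, then ionomycin-stimulated for 30 min, LTB4 in plasma supernatant quantified by ELISA.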 The assay is classed as cell-based. The following applies: Ionomycin 20 μM, read-out: hWBIC50.
The mark [1] stands for this setting: recombinant human LTA4 hydrolase 200 nM, LTA4 2 μM, read-out: AvgIC50.

Where a name gives a salt, the structure may show the parent alone. Read-outs that look alike come from different tables or passages of the source. Where only a bound is given, the exact number is not on record here.

With `c1ccc(Cc2ccc(OC[C@H]3CCCN3)cc2)cc1` [Example 1, (R)-2-(4-Benzylphenoxymethyl)pyrrolidine], the IC50 on human LTA4 hydrolase and in the assay on human whole blood was < 5 µM in each case.
For `c1ccc(Cc2ccc(OC[C@@H]3CCCN3)cc2)cc1` [Example 2, (S)-2-(4-Benzylphenoxymethyl)pyrrolidine], the IC50 at human LTA4 hydrolase is < 5 µM.
Turning to `O=C(O)CCCN1CCC[C@@H]1COc1ccc(Oc2ccc(Cl)cc2)cc1` [Example 20, 4-{(R)-2-[4-(4-Chloro-phenoxy)-phenoxymethyl]-pyrrolidin-1-yl}-butyric acid hydrochloride], on human LTA4 hydrolase (setting [1]), the IC50 is < 5 µM.
For the compound `O=C(O)CCCN1CCC[C@H]1COc1ccc(Oc2ccc(Cl)cc2)cc1` [Example 22, 4-{(S)-2-[4-(4-Chloro-phenoxy)-phenoxymethyl]-pyrrolidin-1-yl}-butyric acid hydrochloride], at human LTA4 hydrolase (setting [1]), the IC50 was < 5 µM.
Take `c1ccc(CNc2ccc(OC[C@H]3CCCN3)cc2)cc1` [Example 48, Benzyl-[4-((R)-1-pyrrolidin-2-ylmethoxy)-phenyl]-amine]: in the assay on human whole blood, the IC50 is < 5 µM.
Regarding `[2H]C([2H])(CN1CCC[C@H]1COc1ccc(Oc2ccc(Cl)cc2)cc1)C([2H])([2H])C(=O)O` [Example 68, 4-{(S)-2-[4-(4-chloro-phenyoxy)-phenoxymethyl]-pyrrolidin-1-yl}-butyric acid (D4)], at human LTA4 hydrolase (setting [1]), the IC50 is < 5 µM.
